Patent US6689302B2, “Method of making an antimicrobial tympanostomy tube” (Medtronic Xomed, Inc., priority 1993, dated 2004)

Tested on: round window membrane in the ear of guinea pigs
Test: Otologic tissue compatibility, samples placed on round window membrane
Settings: guinea pig ear

silver oxide [100% silver oxide powder]
otologic tissue compatibility (irritation or inflammation): hair cell losses and adhesions
